Laboratory results as given in PMC9604228, “Identification of Arginine Phosphorylation in Mycolicibacterium smegmatis” (2022).
pKd: −log10 of the molar value.

Chains of the proteins cited; added tags and fusions are not shown. Residues count along the entry.
UniProt A0R574, 1-147 limits assumed: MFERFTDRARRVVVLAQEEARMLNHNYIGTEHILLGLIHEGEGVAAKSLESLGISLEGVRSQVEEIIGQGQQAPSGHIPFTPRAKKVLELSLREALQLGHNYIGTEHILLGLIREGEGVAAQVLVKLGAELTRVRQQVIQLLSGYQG

Molecular target: M. smegmatis ClpC1^NTD (Mycolicibacterium smegmatis, UniProt A0R574)
Test: microscale thermophoresis
Settings: 0.1 μM ClpC1^NTD-FITC (labelled protein); 25 mM HEPES, 200 mM NaCl, 10 mM MgCl2, 0.1 mM EDTA, pH 7.0, 0.05% Tween 20, 8 mg/mL BSA; noncooperative single-site quadratic fit

With N=C(NCCC[C@H](N)C(=O)O)NP(=O)(O)O the pKd was 5.85.
